Measured values published in publication PMC9496819 (Cancers, 2022).

Test system: HOSE6.3 cells
Assay: Presto Blue cell viability assay in non-tumoral cells, single drugs and Paclitaxel combinations (Chou–Talalay, Bliss, HSA analysis)
Settings: HOSE6.3, 48 h, 0.25 x IC50 of each drug, alone or combined

## Ivermectin
  Cellular viability (%) Media: 100.990%
